Measurements reported in publication PMC11285371 (Journal of medicinal chemistry, 2023).

What follows are compounds tested on Mtb H37Rv::luxCDAB.
Type: cell-based, Mycobacterium tuberculosis

| Compound | antibacterial activity against nonreplicating Mtb (in words, relative to AQA) |
| --- | --- |
| Cc1cccc(-c2nc(Nc3ccc4ncoc4c3)c3ccccc3n2)n1 [compound 8] | reduced bactericidal activity |
| Cc1cccc(-c2nc(Nc3ccc4ncccc4c3)c3ccccc3n2)n1 [compound 19] | reduced bactericidal activity |
| Cc1cccc(-c2nc(Nc3ccc4ncn(C)c4c3)c3ccccc3n2)n1 [compound 9] | reduced bactericidal activity |
| Cc1cccc(-c2nc(Nc3ccc4[nH]ccc4c3)c3ccccc3n2)n1 [compound 18] | reduced bactericidal activity |
